# Measured values from paper PMC11085448 (Molecules, 2024).
# Chains of the proteins cited; added tags and fusions are not shown. Lines headed by an entry give the natural chain unless they say otherwise; changes in a name come on top.
# UniProt P41145: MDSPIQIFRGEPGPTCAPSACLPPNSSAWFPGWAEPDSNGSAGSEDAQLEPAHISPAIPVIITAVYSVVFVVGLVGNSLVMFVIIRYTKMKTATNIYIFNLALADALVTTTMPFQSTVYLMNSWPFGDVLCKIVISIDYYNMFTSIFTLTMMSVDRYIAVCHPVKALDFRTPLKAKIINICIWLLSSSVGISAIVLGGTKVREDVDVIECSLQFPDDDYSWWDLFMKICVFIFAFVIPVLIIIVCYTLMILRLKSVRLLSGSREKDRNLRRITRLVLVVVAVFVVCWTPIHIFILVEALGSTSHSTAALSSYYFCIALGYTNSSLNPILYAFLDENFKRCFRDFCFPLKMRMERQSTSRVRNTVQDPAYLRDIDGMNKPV
# Target: human κ-opioid receptor (OPRK1) (Homo sapiens, UniProt P41145)
# Assay: forskolin-induced cAMP accumulation assay, KOR antagonist
# Details: CHO-K1 human KOR; versus EC90 of U50488H; Imax normalized to nor-BNI
smiles,measurement,value
"Oc1ccc2c3c1O[C@H]1c4[nH]c5c(c4C[C@@]4(O)[C@@H](C2)N(CC2CC2)CC[C@]314)C[C@@]1(O)[C@H]2Cc3ccc(O)c4c3[C@@]1(CCN2CC1CC1)[C@H]5O4 [nor-BNI, reference compound]",KOR Antagonist %Imax ± SEM,102.4 ± 1.2%
